## AlphaSeq binding of Ab-14 heavy chain variants to a spike HR2 peptide

Values reported by Engelhart et al. 2022, doi:10.1038/s41597-022-01779-4 (FLAb copy).

Antigen: PDVDLGDISGINAS, a 14-residue peptide of the SARS-CoV-2 spike HR2 region.

Ab-14 is the parent antibody, in scFv form: VH, then the linker GGGGSGGGGSGGGGS, then VL. The light chain is unchanged in all variants.
VH: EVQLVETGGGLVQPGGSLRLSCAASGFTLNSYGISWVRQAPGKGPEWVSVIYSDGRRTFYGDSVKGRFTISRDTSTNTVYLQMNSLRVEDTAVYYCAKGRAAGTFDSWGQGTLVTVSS
VL: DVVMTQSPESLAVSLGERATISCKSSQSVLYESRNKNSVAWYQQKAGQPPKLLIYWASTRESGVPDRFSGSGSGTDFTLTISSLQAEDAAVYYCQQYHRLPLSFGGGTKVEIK

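In library AAYL49, one, two or three CDR residues were substituted; doubles and triples were drawn at random. AlphaSeq pools MATa yeast showing the antibodies with MATalpha yeast showing the peptide. Pairs that bind mate more often; barcode pairs of the diploids are counted by sequencing. A regression on co-assayed BCL2-family reference pairs converts the normalised counts of each replicate to an apparent Kd. Each pool was mated in three replicate cultures.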

Positions count from residue 1 of the parent VH; S35P puts P in place of S.
This list gathers variants with a substitution at R100 (VH, numbered from residue 1).
Numbers give log10(Kd / nM), so 0 is 1 nM and 3 is 1 µM. Smaller is tighter.
The mean shown is taken over the replicates in which the pair was detected.
Where no diploid with the target was found in any replicate, the entry reads "nd": below detection, most likely a poor binder, though not proof of it.
Nonspecific signal, from three strains lacking the peptide, appeared in 15% of pairings of library AAYL49, centred on 4.06 (5% of these signals below 2.83); values are not corrected for it.

changes,mean log10 Kd (nM),detected
S35P/R100Y,4.18,2 of 3
G26P/R100Q/D106P,nd,0 of 3
L29W/S53I/R100I,4.83,3 of 3
I51C/R100Q/S107E,nd,0 of 3
G61W/R100P/S107C,3.29,1 of 3
F59T/R100H,2.55,3 of 3
T58Q/R100A/G103N,4.27,1 of 3
G99L/R100Q/A101V,nd,0 of 3
I34Y/R56Q/R100I,3.88,1 of 3
V50Q/R100W/T104W,2.35,1 of 3
S31E/D54Q/R100I,5.33,1 of 3
L29A/R100I,3.51,2 of 3
T28C/S31V/R100C,3.42,3 of 3
G55N/R100M,5.30,2 of 3
G99N/R100Q/G103N,nd,0 of 3
R100G/S107L,0.73,3 of 3
T28F/D62C/R100D,nd,0 of 3
T28G/G61V/R100V,0.85,3 of 3
G61Y/S63M/R100C,nd,0 of 3
Y52K/T58P/R100Y,nd,0 of 3
Y32V/Y52M/R100V,nd,0 of 3
G26N/R100T/F105T,1.66,3 of 3
S31A/R57Q/R100V,3.24,3 of 3
G33N/I34W/R100M,nd,0 of 3
T58Q/R100Q/A101Y,0.97,3 of 3
G33K/R100M/F105K,nd,0 of 3
R56C/R100G/G103H,1.73,3 of 3
F59K/R100V/S107D,2.82,3 of 3
S53M/R100M,nd,0 of 3
S63F/R100L,4.43,2 of 3
Y32E/R100D/T104G,nd,0 of 3
T28I/R100L,1.84,3 of 3
T28P/R100M/D106M,nd,0 of 3
I51R/G55R/R100A,nd,0 of 3
V50A/R100Q/A101Y,4.89,1 of 3
V50Q/G99Y/R100T,4.56,1 of 3
T58L/R100V/T104I,nd,0 of 3
F27H/R100Y/A101I,2.90,3 of 3
G26E/F59H/R100E,1.58,3 of 3
Y32D/R100G/D106W,5.31,1 of 3
N30S/S31C/R100L,nd,0 of 3
Y32K/R100C,nd,0 of 3
Y32R/D54N/R100A,nd,0 of 3
S53R/D54W/R100I,4.11,1 of 3
V50L/S63G/R100S,nd,0 of 3
S31T/S53H/R100A,0.98,3 of 3
R100V/A101I/D106I,0.32,3 of 3
I34A/Y60K/R100E,3.66,1 of 3
S31K/G55F/R100M,5.08,3 of 3
S31P/I51N/R100V,nd,0 of 3
F27Q/S63I/R100F,4.56,1 of 3
R100V/G103Q,1.52,3 of 3
G33P/F59D/R100C,nd,0 of 3
R56T/R100C/T104N,nd,0 of 3
S31C/I51C/R100N,nd,0 of 3
Y52L/R100F/F105G,nd,0 of 3
T58E/R100A/G103H,nd,0 of 3
T58Y/R100A,3.27,3 of 3
Y32I/T58M/R100D,2.01,3 of 3
T28R/S31W/R100G,3.48,2 of 3
R56E/R100F,1.28,3 of 3
G33F/V64N/R100Y,nd,0 of 3
N30R/Y60V/R100L,4.01,1 of 3
S31Q/R57W/R100C,6.07,1 of 3

Top 5 of the variants detected in all replicates, tightest first:

{"changes": "R100V/A101I/D106I", "mean log10 Kd (nM)": "0.32", "detected": "3 of 3"}
{"changes": "R100G/S107L", "mean log10 Kd (nM)": "0.73", "detected": "3 of 3"}
{"changes": "T28G/G61V/R100V", "mean log10 Kd (nM)": "0.85", "detected": "3 of 3"}
{"changes": "T58Q/R100Q/A101Y", "mean log10 Kd (nM)": "0.97", "detected": "3 of 3"}
{"changes": "S31T/S53H/R100A", "mean log10 Kd (nM)": "0.98", "detected": "3 of 3"}